From ChEMBL document CHEMBL2010704 (J Med Chem, 2012)
pIC50: −log10 of the molar value.

Chains of the proteins cited; added tags and fusions are not shown. Lines headed by an entry give the natural chain unless they say otherwise; changes in a name come on top.
UniProt Q9UNQ0: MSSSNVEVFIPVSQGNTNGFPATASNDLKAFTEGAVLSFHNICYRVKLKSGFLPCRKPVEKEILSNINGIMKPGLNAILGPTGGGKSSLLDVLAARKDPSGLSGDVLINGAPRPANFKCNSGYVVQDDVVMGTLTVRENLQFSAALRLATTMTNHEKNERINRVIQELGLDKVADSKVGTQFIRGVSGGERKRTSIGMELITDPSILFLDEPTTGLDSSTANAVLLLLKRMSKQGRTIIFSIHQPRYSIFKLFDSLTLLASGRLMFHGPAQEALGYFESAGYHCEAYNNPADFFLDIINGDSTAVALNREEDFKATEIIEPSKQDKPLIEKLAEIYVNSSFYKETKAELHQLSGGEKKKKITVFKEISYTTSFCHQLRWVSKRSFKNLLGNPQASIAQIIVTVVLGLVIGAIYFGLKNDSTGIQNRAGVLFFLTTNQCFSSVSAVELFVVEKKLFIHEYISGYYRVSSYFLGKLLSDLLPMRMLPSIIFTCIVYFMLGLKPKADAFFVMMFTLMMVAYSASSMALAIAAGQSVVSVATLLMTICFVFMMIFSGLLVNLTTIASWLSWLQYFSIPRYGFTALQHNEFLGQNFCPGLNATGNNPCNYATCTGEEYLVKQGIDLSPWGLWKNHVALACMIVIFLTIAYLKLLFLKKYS

Target: Broad substrate specificity ATP-binding cassette transporter ABCG2 (Homo sapiens, UniProt Q9UNQ0)
Test: Inhibition of ABCG2-mediated mitoxantrone efflux in HEK293 cells by flow cytometry
Type: cell-based
Method in brief: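 HEK293-ABCG2 cells seeded at 1 × 10^5 cells/well and grown 48 h, then loaded with 5 μM mitoxantrone for 30 min at 37 °C with or without compound. Cells washed in PBS and trypsinized; intracellular fluorescence read by flow cytometry on at least 10,000 events. […] IC50 from a concentration range; mean ± SD, n ≥ 3.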

SMILES: COc1ccc(CCNC(=O)c2cc(=O)c3c(OCc4ccccc4)cccc3o2)cc1OC
- pIC50: 6.77
